Experimental data as given in patent publication EP0939649B1, “ADDITIVE, IN PARTICULAR IN THE FORM OF AN EMULSION CONTAINING A TRIVALENT METAL CATION AND VACCINE COMPOSITION CONTAINING SAME” (priority 1996, dated 1998).

Assay: Local reactions (lesions and granulomas) at the injection site after subcutaneous injection in mice
Assay type: in vivo, souris
Details: 8 days after s.c. injection, 1000 µl, 10 µg BSA
Procedure: On a injecté à différents lots comprenant chacun 5 souris, une composition thérapeutique d'un volume de 1000 µl, comprenant 10 µg d'antigène (BSA), par voie sous-cutanée. On a évalué les réactions locales (lésions et granulomes) 8 jours après injection.

Measured: réactions locales (lésions et granulomes)

salicylate d'Aluminium
0: souris 1 | souris 3 | souris 4 | souris 5
